Results published in PMC13408504, “Design, structure-based optimization and antiviral evaluation of potent inhibitors for the macrodomain Mac1 of SARS-CoV-2” (Nature Communications, 2026).

System: cellular NAD+ levels in CaLu-3 cells
Assay: Quantification of cellular NAD+ (enzymatic cycling kit, normalised to protein)
Format: cell-based
Details: CaLu-3, after 2 h

Compound: O=C(/C=C/c1cccnc1)NCCCCC1CCN(C(=O)c2ccccc2)CC1 [FK866]
- effect on cellular NAD levels (in words): no measurable effect
